Experiments:
Assay type in all cases: cell-based
[1] = target: URAT1 (Homo sapiens, UniProt Q96S37); assay: [14C]-urate uptake by URAT1-expressing Xenopus oocytes
Excerpt: (§1) For uptake experiments, oocytes were washed four times with ND96 medium (pH 7.4) without pyruvate and gentamycin.

The chains behind the UniProt entries cited, without tags or fusion partners. Where a name states a change or a piece, a line headed by the entry shows the natural chain unless it says otherwise.
UniProt Q96S37: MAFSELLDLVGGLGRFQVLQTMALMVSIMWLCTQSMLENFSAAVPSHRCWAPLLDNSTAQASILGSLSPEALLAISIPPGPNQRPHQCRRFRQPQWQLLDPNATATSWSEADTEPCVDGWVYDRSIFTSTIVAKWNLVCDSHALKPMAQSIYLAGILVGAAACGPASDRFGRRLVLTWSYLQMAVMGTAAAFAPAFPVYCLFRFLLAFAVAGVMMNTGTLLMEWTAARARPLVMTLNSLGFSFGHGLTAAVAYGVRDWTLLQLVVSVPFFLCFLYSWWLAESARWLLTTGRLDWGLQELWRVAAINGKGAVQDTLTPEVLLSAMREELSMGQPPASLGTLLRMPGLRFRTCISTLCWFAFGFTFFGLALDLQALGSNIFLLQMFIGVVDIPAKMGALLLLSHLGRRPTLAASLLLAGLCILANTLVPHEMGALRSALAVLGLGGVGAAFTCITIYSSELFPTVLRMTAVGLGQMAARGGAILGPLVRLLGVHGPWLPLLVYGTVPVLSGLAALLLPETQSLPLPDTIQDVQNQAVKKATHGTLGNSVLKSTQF

[2] = target: T1, OAT4 (Homo sapiens, UniProt Q9NSA0); assay: [14C]-urate uptake by OAT4-expressing Xenopus oocytes
T1 sequence (Q9NSA0 1-550): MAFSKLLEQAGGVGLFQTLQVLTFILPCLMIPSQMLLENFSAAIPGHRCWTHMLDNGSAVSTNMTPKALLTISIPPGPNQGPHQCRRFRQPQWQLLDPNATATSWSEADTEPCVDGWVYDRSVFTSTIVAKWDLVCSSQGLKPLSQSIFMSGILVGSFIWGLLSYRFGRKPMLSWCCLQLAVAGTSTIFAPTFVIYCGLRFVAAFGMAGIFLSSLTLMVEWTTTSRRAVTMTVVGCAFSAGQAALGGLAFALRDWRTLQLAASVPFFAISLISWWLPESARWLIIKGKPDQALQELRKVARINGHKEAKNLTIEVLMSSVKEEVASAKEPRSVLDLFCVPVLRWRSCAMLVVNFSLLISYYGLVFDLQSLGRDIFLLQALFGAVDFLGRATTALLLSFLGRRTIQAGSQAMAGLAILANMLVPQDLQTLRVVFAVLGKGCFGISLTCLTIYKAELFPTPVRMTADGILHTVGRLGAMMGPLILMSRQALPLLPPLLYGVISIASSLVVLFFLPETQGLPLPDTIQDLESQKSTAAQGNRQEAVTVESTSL
Method: as §1
(A) The uptake of [^14C]‐urate by OAT4‐expressing oocytes was performed in ND96 medium (pH 7.4) at ~25°C for 1 h. Na^+‐dependence was examined by replacing extracellular NaCl by KCl. […] (B) The inhibition of [^14C]‐urate uptake by OAT4 was examined in the presence of extracellular organic anions (for cis‐inhibition) or uricosuric drugs at the indicated concentrations. […] Data are mean ± S.E. with n = 12–15.

[3] = target: T2, OAT3 (Mus musculus, UniProt O88909); assay: [14C]-urate uptake by OAT3-expressing Xenopus oocytes
T2 sequence (O88909 1-537): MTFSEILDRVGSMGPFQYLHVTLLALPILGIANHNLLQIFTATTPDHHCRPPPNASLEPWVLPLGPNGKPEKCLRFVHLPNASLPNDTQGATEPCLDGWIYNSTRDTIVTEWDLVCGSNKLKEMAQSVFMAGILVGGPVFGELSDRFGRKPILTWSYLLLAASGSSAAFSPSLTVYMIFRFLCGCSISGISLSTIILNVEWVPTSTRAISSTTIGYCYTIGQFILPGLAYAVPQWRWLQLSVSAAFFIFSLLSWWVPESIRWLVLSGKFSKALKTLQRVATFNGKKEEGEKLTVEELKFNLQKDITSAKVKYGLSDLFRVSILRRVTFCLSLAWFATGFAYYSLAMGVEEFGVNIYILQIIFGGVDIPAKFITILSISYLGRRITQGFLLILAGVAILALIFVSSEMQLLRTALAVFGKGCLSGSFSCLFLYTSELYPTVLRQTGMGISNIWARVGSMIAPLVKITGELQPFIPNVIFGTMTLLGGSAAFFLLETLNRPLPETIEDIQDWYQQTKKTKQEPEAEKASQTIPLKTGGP
Method: as §1
The uptake of [^14C]‐urate (40 μmol/L) was performed in ND96 medium (pH 7.4) at ~25°C for 1 h.

α‐ketoglutarate [α‐KG] was tested, and the “cis-inhibition of URAT1-mediated urate uptake by extracellular organic anion” value [1] was “not cis‐inhibited”, the “cis-inhibition of OAT4-mediated, maleate trans-stimulated urate uptake” value ([2]; 10 mM extracellular anion) was “much less cis‐inhibition” and the “trans-stimulatory effect of preloaded anion on OAT4-mediated urate uptake” value ([2]; preinjected 50 nL of 100 mmol/L) was “no significant effects”. The “Effect of preloaded intracellular anion on OAT3 [14C]-urate uptake (trans-stimulation)” value [3] was “not trans‐stimulated”.

— article PMC5368959, “Uricosuric targets of tranilast” (Pharmacology Research & Perspectives, 2017)
